Assay results published in paper PMC9681730, “DeepPROTACs is a deep learning-based targeted degradation predictor for PROTACs” (Nature Communications, 2022).

The chains behind the UniProt entries cited, without tags or fusion partners. Residues count along the entry.
UniProt P03372, 298-554 limits assumed: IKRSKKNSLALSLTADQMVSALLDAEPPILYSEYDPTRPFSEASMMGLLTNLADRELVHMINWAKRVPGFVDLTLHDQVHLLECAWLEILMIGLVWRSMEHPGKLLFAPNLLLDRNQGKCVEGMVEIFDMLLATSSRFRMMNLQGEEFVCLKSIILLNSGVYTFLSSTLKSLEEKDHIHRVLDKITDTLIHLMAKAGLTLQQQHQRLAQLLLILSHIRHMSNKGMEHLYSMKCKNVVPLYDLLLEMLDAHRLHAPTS

Target: ERα-LBD (estrogen receptor, ER) (Homo sapiens, UniProt P03372)
Experiment: ITC (reverse titration, purified ERα-LBD)

Kd: 2820 nM
Compound: Cc1ncsc1-c1ccc(CNC(=O)[C@@H]2C[C@H](O)CN2C(=O)[C@@H](NC(=O)CCCCCCCCCC(=O)NCCOc2ccc(C(=C(CCCl)c3ccccc3)c3ccc(O)cc3)cc2)C(C)(C)C)cc1
